Laboratory results from US20180008587A1, “THIOHYDANTOIN ANDROGEN RECEPTOR ANTAGONISTS FOR THE TREATMENT OF CANCER” (Jaressen Pharmaceutica NV, priority 2016, published 2018).

Sequences of proteins named here, by UniProt entry; tags and fusion partners are left off.
UniProt P10275, whole entry: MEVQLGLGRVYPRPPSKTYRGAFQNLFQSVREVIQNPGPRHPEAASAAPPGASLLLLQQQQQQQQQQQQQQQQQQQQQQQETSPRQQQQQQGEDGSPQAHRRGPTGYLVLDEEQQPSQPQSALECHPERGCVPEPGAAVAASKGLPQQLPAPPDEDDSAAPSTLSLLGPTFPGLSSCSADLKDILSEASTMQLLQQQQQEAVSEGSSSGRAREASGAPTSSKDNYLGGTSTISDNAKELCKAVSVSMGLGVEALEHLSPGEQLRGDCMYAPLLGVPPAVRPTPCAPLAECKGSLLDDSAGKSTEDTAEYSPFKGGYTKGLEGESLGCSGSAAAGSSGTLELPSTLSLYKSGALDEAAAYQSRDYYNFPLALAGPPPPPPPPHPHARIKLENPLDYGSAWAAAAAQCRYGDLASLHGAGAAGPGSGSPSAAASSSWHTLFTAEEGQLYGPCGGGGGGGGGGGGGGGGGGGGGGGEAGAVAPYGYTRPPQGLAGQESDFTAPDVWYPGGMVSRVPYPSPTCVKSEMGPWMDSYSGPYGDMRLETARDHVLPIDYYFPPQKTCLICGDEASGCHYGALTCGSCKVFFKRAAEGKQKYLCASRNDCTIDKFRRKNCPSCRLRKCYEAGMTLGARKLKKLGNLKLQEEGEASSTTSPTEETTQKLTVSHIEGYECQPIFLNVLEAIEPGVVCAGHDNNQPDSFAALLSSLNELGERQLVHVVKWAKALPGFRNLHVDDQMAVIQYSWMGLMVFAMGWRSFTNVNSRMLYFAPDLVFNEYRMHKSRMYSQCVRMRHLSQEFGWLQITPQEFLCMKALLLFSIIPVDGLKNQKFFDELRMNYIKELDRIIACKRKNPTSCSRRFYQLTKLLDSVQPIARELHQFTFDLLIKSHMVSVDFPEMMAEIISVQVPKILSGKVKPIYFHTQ

Columns and labels:
[1] = target: T1, wild-type Androgen Receptor (AR-wt) (Homo sapiens, UniProt P10275); experiment: LNCaP-AR-wt ANT reporter assay (ARE firefly luciferase, antagonist mode); assay type: cell-based; details: 400 pM R-1881 challenge, −Log10(IC50 [Molar])
[2] = target: T1, wild-type Androgen Receptor (AR-wt); experiment: LNCaP-AR-wt AG reporter assay (ARE firefly luciferase, agonist mode); assay type: cell-based

Question: What does the source list for `CNC(=O)c1ccc(N2C(=S)N(c3cnc(C#N)c(C)c3)C(=O)C23CCCC3)cc1F`?
Answer: LNCaP-AR-wt ANT pIC50 [1]: 6.38; LNCaP-AR-wt AG pEC50 ([2]; agonist mode, −Log10(EC50 [Molar])): <4.82; LNCaP-AR-wt AG MAX % Stim ([2]; maximum % stimulation (agonist response) over tested concentration range): 1.2%
